Measurements taken from US20050227337A1, “Method for producing ascorbic acid intermediates” (priority 1998, published 2005).
Where two headings read alike, the source gives them in different places.

By UniProt entry, the sequences of proteins in these tests, tags left out.
UniProt P06632, whole entry F22Y/A272G: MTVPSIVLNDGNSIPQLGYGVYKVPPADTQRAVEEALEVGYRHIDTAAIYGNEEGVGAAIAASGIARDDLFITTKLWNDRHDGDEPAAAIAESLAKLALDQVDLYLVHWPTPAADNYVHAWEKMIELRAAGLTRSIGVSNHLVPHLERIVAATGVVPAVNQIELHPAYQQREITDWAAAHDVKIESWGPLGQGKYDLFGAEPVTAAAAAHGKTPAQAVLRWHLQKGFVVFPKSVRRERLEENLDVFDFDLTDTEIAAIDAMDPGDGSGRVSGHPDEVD

Assays:
Format in all cases: biochemical
[1] = target: T1, Reductase A F22Y/A272G (Corynebacterium sp., UniProt P06632, A272G/F22Y); conditions: for % Activity, 0 min / % Activity, 5 min / % Activity, 10 min: 20 mM, 45.4° C., 25 mM MOPS pH 7, all % +/- 10%; for Half-life of reductase: 25 mM MOPS pH 7.0
T1 construct: made in house; host or cells: E. coli

[2] = target: Reductase (Corynebacterium sp., UniProt P06632, A272G/F22Y); conditions: for Km: read-out: Km for DKG
[3] = target: T1, Reductase A F22Y/A272G; conditions: pH 7.0, 30° C.
[4] = salt concentrations increased to 250 mM

With `O=C(O)C(=O)[C@@H](O)[C@H](O)[C@@H](O)CO` [2-KLG, 2-keto-L-gulonic acid] the “% Activity, 0 min” value [1] was 100%, the “% Activity, 5 min” value [1] was 51% and the “% Activity, 10 min” value [1] was 29%. The “reductase activity remaining after incubation” value ([1]; 500 mM 2-KLG, 50 mM bis-tris pH 7, 45° C.) was “does not significantly lose any activity”, the stabilization of reductase ([1]; intermediate 2-KLG concentrations (0-500 mM), pH 7, 45° C.) was “partial stabilization” and the “mode of inhibition of reductase” value ([2]; 2-KLG 0 to 150 mM versus DKG, pH 7) was “uncompetitive inhibition”. For the same compound, the “decrease of reaction rate” value ([2]; KLG concentration increased from 0 to 150 mM, pH 7) was 2-4 fold.

`[Ca+2].[Cl-].[Cl-]` [CaCl2] was tested, and the reductase activity ([3]; concentrations of 20 mM or more) was “drops”.

Compound `O=C(O)C(=O)[C@@H](O)[C@H](O)C(=O)CO` [DKG, 2,5-diketo-D-gluconate] has a Km ([2]; 150 mM 2-KLG, pH 7) of 2 to 4 mM, a Km ([2]; [NaCl] 0 mM, NADPH at least 3 times above its Km) of 6 to 14 mM and a Km ([2]; [NaCl] 100 mM, NADPH at least 3 times above its Km) of 6 to 14 mM. For the same compound, the Km ([2]; [NaCl] 200 mM, NADPH at least 3 times above its Km) was 6 to 14 mM, the Km ([2]; [NaCl] 400 mM, NADPH at least 3 times above its Km) was 6 to 14 mM and the Km ([2]; pH 7 conditions, no 2-KLG) was 10 to 12 mM.

With `O=S(=O)([O-])[O-].[K+].[K+]` [K2SO4] the “% Remaining activity after 10 min incubation” value ([1]; 100 mM, pH 7, 45° C.) was 90-100% and the “% Remaining activity after 10 min incubation” value ([1]; 0.5 M, pH 7, 45° C.) was 100%.

With `[Cl-].[K+]` [KCl] the “% Remaining activity after 10 min incubation” value ([1]; 0.5 M, pH 7, 45° C.) was 100%, the reductase activity [3, 4] was “drops” and the reductase activity ([3]; up to 100 mM salt) was “stays the same or slightly increases”.

`NC(=O)C1=CN([C@@H]2O[C@H](COP(=O)(O)OP(=O)(O)OC[C@H]3O[C@@H](n4cnc5c(N)ncnc54)[C@H](OP(=O)(O)O)[C@@H]3O)[C@@H](O)[C@H]2O)C=CC1` [NADPH] was tested, and the “% Remaining activity after 10 min incubation” value ([1]; 100 mM, pH 7, 45° C.) was 80-90% and the “increase of Km for NADPH over the Km determined without NaCl” value ([2]; 200 mM NaCl, pH 7 bis-tris, approx. 1.5 mg/ml DKG, 30° C.) was 10-40 fold.

In the case of `[Cl-].[Na+]` [NaCl, sodium chloride], the “% Activity, 0 min” value [1] was 100%, the “% Activity, 5 min” value [1] was 72% and the “% Activity, 10 min” value [1] was 59%. The “% Remaining activity after 10 min incubation” value ([1]; 0.5 M, pH 7, 45° C.) was 100%, the reductase rate ([2]; NaCl 100 mM or greater, 250 uM NADPH, 10-20 mM DKG) was “decreased” and the “mode of inhibition of reductase” value ([2]; NaCl versus cofactor NADPH) was “competitive”. The reductase activity [3, 4] was “drops” and the reductase activity ([3]; up to 100 mM salt) was “stays the same or slightly increases”.

In the case of `[I-].[Na+]` [NaI], the “% Remaining activity after 12 min incubation” value ([1]; 0.1 M, pH 7, 45° C.) was 80-85%.

`O=C(O)C(=O)[C@@H](O)[C@H](O)[C@@H](O)CO.[Na]` [NaKLG] was tested, and the stabilization of reductase ([1]; 0-400 mM NaKLG, 46.6-46.9° C., concentration dependent) was “clearly stabilizes”, the Half-life of reductase ([1]; 100 mM NaKLG, 46.6-46.9° C.) was 5.5 ± 1 min and the Half-life of reductase ([1]; 200 mM NaKLG, 46.6-46.9° C.) was 7.5 ± 1.5 min. The Half-life of reductase ([1]; 300 mM NaKLG, 46.6-46.9° C.) was 10 ± 3 min and the Half-life of reductase ([1]; 400 mM NaKLG, 46.6-46.9° C.) was 18.5 ± 3 min.

In the case of K2PO4, the “% Remaining activity after 10 min incubation” value ([1]; 200 mM, pH 7, 45° C.) was 65-75%.
